The text below walks through data of US12214059B2, “Cleavable radioligands for targeting cell surface receptors and uses thereof” (Full-Life Te[…] Limited, priority 2021, dated 2025).

Sequences of proteins named here, by UniProt entry; tags and fusion partners are left off.
UniProt Q04609, whole entry: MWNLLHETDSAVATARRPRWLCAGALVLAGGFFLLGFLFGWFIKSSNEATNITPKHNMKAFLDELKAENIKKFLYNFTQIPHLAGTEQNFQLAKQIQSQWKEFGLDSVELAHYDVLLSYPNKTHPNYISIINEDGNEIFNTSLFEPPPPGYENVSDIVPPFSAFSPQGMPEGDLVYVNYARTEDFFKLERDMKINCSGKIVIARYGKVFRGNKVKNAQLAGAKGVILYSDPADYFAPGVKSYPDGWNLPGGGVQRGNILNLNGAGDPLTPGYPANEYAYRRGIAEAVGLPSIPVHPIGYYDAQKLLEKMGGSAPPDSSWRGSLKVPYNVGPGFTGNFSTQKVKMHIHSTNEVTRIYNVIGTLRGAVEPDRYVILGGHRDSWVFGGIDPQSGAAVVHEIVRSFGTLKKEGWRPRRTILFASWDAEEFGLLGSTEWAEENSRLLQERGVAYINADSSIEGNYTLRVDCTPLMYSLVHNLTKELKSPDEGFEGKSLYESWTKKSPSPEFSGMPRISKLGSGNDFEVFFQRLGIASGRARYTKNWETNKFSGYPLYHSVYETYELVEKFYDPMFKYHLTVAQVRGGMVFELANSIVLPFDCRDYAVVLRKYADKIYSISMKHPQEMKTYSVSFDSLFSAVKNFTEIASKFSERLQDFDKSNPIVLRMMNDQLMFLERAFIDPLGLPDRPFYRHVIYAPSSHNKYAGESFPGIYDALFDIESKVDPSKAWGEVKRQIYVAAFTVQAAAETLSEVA

One data set addresses T1, PSMA (Homo sapiens, UniProt Q04609).
T1 construct: host or cells: LNCaP cells
The experiment in a line: Cell-based radioligand competitive binding assay (^125I-C-8, LNCaP cells). To be noted: based on the mean value of the IC50 number; C-1 = 1.00. The method, then: The culture medium was replaced with fresh medium every 2-3 days. Experiments were performed with cells at 70-80% confluence.
The final volume in each well was maintained at 200 μL and insufficient volume was adjusted by the binding buffer.

A short description of data set [1]: Biodistribution study in CB-17 SCID mice bearing LNCap tumor. Format: in vivo. The note with it: mouse, iv, total radioactivity. On the procedure:
Biodistribution Study in CB-17 SCID Mice Bearing LNCap Tumor
All animal care and experimental procedure were performed by following the animal protocols approved by the ethics committee of China Institute of Radiation Protection. The CB-17 SCID mice (Charles River, Beijing) were utilized for these studies. […] These mice received subcutaneous rear flank injections of approximately 4×10^6 LNCap cells suspended in 200 μL of phosphate-buffered saline (PBS) and Matrigel (Corning) (1/1).

Where two headings read alike, the source gives them in different places.

Regarding `O=C(O)CC[C@H](NC(=O)N[C@@H](CCCCNC(=O)[C@H](Cc1ccc2ccccc2c1)NC(=O)[C@H]1CC[C@H](CNC(=O)[C@H](CCCCNC(=O)CN2CCN(CC(=O)O)CCN(CC(=O)O)CCN(CC(=O)O)CC2)NC(=O)CCC(=O)NCCSSCCNC(=O)[C@H](CCC(=O)O)NC(=O)CCCc2ccc(I)cc2)CC1)C(=O)O)C(=O)O` [Example I-1, 4pIBA-Glu-SSL1-Lys(DOTA)-Trx-2NaI-eKuE], at PSMA, the “Relative Binding Affinity” value came to 1.84.

With `O=C(O)CC[C@H](NC(=O)N[C@@H](CCCCNC(=O)[C@H](Cc1ccc2ccccc2c1)NC(=O)[C@H]1CC[C@H](CNC(=O)CCCCCCCCCCNC(=O)[C@H](CCCCNC(=O)CCC(=O)OCCOC(=O)CCC(=O)NCCNC(=O)CN2CCN(CC(=O)O)CCN(CC(=O)O)CCN(CC(=O)O)CC2)NC(=O)[C@H](CCC(=O)O)NC(=O)CCCc2ccc(I)cc2)CC1)C(=O)O)C(=O)O` [Example I-5, 4pIBA-Glu-Lys(-ESL2-DOTA)-Aun-Trx-2NaI-eKuE], at PSMA, the “Relative Binding Affinity” value is given as 1.08.

For the molecule `O=C(O)CC[C@H](NC(=O)N[C@@H](CCCCNC(=O)[C@H](Cc1ccc2ccccc2c1)NC(=O)[C@H]1CC[C@H](CNC(=O)[C@H](CCCCNC(=O)[C@H](CCC(=O)O)NC(=O)CCCc2ccc(I)cc2)NC(=O)CCC(=O)OCCOC(=O)CCC(=O)NCCNC(=O)CN2CCN(CC(=O)O)CCN(CC(=O)O)CCN(CC(=O)O)CC2)CC1)C(=O)O)C(=O)O` [Example I-6, DOTA-ESL2-Lys(-Glu-4pIBA)-Trx-2NaI-eKuE], the “Relative Binding Affinity” value on PSMA stood at 0.62.

On to `CSCC[C@H](NC(=O)CNC(=O)CN1CCN(CC(=O)O)CCN(CC(=O)O)CCN(CC(=O)O)CC1)C(=O)N[C@H](C(=O)N[C@@H](CCCCNC(=O)CCC(=O)NCCCC[C@H](NC(=O)[C@H](CCC(=O)O)NC(=O)CCCc1ccc(I)cc1)C(=O)NC[C@H]1CC[C@H](C(=O)N[C@@H](Cc2ccc3ccccc3c2)C(=O)NCCCC[C@H](NC(=O)N[C@@H](CCC(=O)O)C(=O)O)C(=O)O)CC1)C(=O)O)C(C)C` [Example I-9, 4pIBA-Glu-Lys[-Suc-eLys-Val-Met-Gly-DOTA]-Trx-2NaI-eKuE], for which the “Relative Binding Affinity” value at PSMA worked out at 1.80.

For `O=C(O)CC[C@H](NC(=O)N[C@@H](CCCCNC(=O)[C@H](Cc1ccc2ccccc2c1)NC(=O)[C@H]1CC[C@H](CNC(=O)[C@H](CCCCCC(=O)CN2CCN(CC(=O)O)CCN(CC(=O)O)CCN(CC(=O)O)CC2)NC(=O)CCCOC(=O)CNC(=O)c2cc(C(=O)NCCNC(=O)COCCOCCNC(=O)[C@H](CCC(=O)O)NC(=O)CCCc3ccc(I)cc3)cc(C(=O)NCC(=O)OCCCC(=O)N[C@@H](CCCCNC(=O)CN3CCN(CC(=O)O)CCN(CC(=O)O)CCN(CC(=O)O)CC3)C(=O)NC[C@H]3CC[C@H](C(=O)N[C@@H](Cc4ccc5ccccc5c4)C(=O)NCCCC[C@H](NC(=O)N[C@@H](CCC(=O)O)C(=O)O)C(=O)O)CC3)c2)CC1)C(=O)O)C(=O)O` [Example I-33, 4pIBA-Glu-OEG-NH2CH2CH2NH-TMA[-ESL1-Lys(DOTA)-Trx-2NaI-eKuE]2], on PSMA, the “Relative Binding Affinity” value came to 0.81.

Turning to `O=C(O)CC[C@H](NC(=O)N[C@@H](CCCCNC(=O)[C@H](Cc1ccc2ccccc2c1)NC(=O)[C@H]1CC[C@H](CNC(=O)CN2CCN(CC(=O)O)CCN(CC(=O)O)CCN(CC(=O)O)CC2)CC1)C(=O)O)C(=O)O` [^177Lu—C-1, metal not drawn, reference compound], the tissue uptake at 24 h in data set [1] (Blood, 24 h) is 0.01 %ID/g. Also, the tissue uptake at 72 h was 0.07 %ID/g in data set [1] (Heart, read-out: Biodistribution, Heart) and 0.02 %ID/g in data set [1] (Muscle, read-out: Biodistribution, Muscle). In data set [1] (Muscle, 168 h), the tissue uptake at 168 h was determined as 0.02 %ID/g.
